This is an account of results in BindingDB's records for doi:10.1016/j.ejmech.2011.01.042 (Ludwig-Maximilians-University Munich, 2011).

This assay addresses T1, Sodium- and chloride-dependent GABA transporter 3 (Mus musculus, UniProt P31650).
T1 sequence (P31650 whole entry): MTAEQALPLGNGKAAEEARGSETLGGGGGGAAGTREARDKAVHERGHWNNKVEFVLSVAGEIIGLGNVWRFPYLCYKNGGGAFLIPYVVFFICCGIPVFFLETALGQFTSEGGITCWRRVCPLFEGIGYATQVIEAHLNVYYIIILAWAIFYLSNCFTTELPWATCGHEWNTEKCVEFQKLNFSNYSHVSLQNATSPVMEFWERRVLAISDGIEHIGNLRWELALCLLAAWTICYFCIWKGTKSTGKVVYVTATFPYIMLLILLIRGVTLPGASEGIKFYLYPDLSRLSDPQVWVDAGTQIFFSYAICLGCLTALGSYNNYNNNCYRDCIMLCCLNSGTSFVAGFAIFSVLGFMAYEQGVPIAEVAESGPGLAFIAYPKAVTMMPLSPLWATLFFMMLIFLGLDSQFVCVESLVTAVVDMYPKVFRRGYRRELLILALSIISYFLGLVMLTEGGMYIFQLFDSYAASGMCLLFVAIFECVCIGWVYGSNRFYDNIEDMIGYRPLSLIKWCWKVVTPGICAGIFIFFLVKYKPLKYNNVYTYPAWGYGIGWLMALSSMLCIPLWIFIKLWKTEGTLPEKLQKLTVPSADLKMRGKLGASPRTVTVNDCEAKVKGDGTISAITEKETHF

By IC50 is commonly meant the point on the concentration scale where inhibition reaches its midpoint. Low values mean greater potency in that assay, high ones weaker potency in that assay. In the case of `NCCCC(=O)O` [4-amino-n-[2,3-3H]butyric acid], the 50% inhibitory concentration (IC50) stood at 8.13 µM.
